Laboratory results reported in patent publication US20230301939A1, “NOVEL FO[…]” (Neurocentrx Pharma Ltd., priority 2018, published 2023).

Assay: API degradation in presence of excipients on storage
Settings: 4 weeks at 40° C./75% RH; PEG1500, PEG6000, Gelucire 44/14, Poloxamer 124, kolliphor RH40, Kolliphor EL, Polysorbate 20/80, Miglyol 812N

For `CNC1(c2ccccc2Cl)CCCCC1=O` (stereo not shown) [Ketamine, ketamine], the “Stability of API in presence of selected excipients” value was “Degradation”.
